Experiments:
[1] = test comparing the solubility of gallstones in glycerol mono-octanoate and 200 mM sodium cholate (Example 2); design: species or system human (patient); settings: six days; sodium cholate 200 mM, mono-octanoate solution as in Example 1
[2] = in vitro study comparing the solubility of gallstones in glycerol mono-octanoate and sodium cholate (matched stones, Example 1); design: species or system human (patients)

CCCCCCCC(=O)OCC(O)CO (stereo not drawn) [glycerol mono-octanoate]
change in size of stones [1]: progressively decreased in size
average amount of stone dissolved by mono-octanoate relative to sodium cholate ([2]; 11.7 g per 100 ml mono-octanoate vs 150 mM sodium cholate, 37° C., 72 hours): 2.5 times
performance in dissolving the stone versus sodium cholate solution ([2]; each pair of stones, 15 patients): superior
mean ratio of amounts dissolved (mono-octanoate / sodium cholate), first day ([2]; first day, 37° C., 11.7 g per 100 ml vs 150 mM sodium cholate): 2.2
mean ratio of amounts dissolved (mono-octanoate / sodium cholate), second day ([2]; second day, 37° C., 11.7 g per 100 ml vs 150 mM sodium cholate): 2.9
mean ratio of amounts dissolved (mono-octanoate / sodium cholate), third day ([2]; third day, 37° C., 11.7 g per 100 ml vs 150 mM sodium cholate): 3.0
